{
  "sequences": {"note": "Amino acid sequences for entries named in this document (tags omitted). Chains listed by the source or under a name are the forms on record and can include a tag or linker.", "UniProt Q9BY41, with tags, fused parts or gaps T69A": "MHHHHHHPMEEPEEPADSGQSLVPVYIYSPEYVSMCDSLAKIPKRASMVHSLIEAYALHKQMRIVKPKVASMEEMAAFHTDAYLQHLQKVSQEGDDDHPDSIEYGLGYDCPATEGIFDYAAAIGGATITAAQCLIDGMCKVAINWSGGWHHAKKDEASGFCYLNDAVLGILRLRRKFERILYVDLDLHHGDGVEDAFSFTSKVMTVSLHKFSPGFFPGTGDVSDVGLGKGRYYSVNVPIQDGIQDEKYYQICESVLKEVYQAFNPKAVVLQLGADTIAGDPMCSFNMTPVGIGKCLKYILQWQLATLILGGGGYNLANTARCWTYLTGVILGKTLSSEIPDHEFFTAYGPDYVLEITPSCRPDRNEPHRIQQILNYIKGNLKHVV"},
  "source": "patent US7250514B1",
  "about": "“Histone deacetylase inhibitors” (Takeda San Diego, Inc., priority 2002, dated 2007)",
  "biological_target": "human HDAC8 (Homo sapiens, UniProt Q9BY41, T69A)",
  "experiment": "biochemical",
  "data": [
    {"smiles": "O=C(CCCCCCC(=O)Nc1ccccc1)NO", "note": "[SAHA, suberanilohydroxamic acid]", "values": [
      {"measurement": "IC50", "result": 130, "unit": "nM"}
    ]}
  ]
}
